Patent US20240156817A1, “TREATMENTS FOR PAIN” (Sevenless Therapeutics Limited, priority 2021, published 2024)
Values joined by “and” are separate entries in the source; they are usually repeats but may differ in a detail not shown here. Equal values may be shown once. “Also recorded” adds a separate entry of the source.

Tests used:
[1] = tested on: Nerve Growth Factor (NGF) stimulated phospho-ERK1/2 activation in PC-12 cells; test: Inhibition of NGF stimulated pERK1/2 activation in the PC-12 cell line (HTRF), alone and combined with anti-NGF; format: cell-based, rat
[2] = tested on: CFA-(Complete Freunds Adjuvant) induced hypersensitivity; test: CFA-induced hypersensitivity using weight-bearing in the C57BI6 mouse; conditions: in vivo
Method: On 3 days before CFA dose: habituation to WB apparatus, baseline readings are taken once. 24 h before dosing: intraplantar injection of 20 μl of CFA 1.5 mg/ml to the left hind paw. 1 h before dosing: post-CFA readings are taken for WB. […] Naive animals distribute their body weight equally between the two hind paws. However, when a painful insult is given to one hindpaw (i.e., sciatic nerve constriction or CFA intraplantar injection), the weight is re-distributed so that less weight is put on the affected paw (with a decrease in weight bearing on the injured paw). Animals were placed in the incapacitance tester (Linton Instruments, UK) with the hind paws on separate sensors. The average forces exerted by the left and the right hindlimb were recorded over 2 s. Weight-bearing readings were taken for both left and right hind paws. The ratio ipsilateral/contralateral was calculated and expressed in % (mean±s.e.m.). Statistics: Two-Way RM Mixed model (treatment×repeated factor: time) (InVivoStat v3.7.0.0)

COc1cc2nc(C)nc(N[C@H](C)c3cc(N)cc(C(F)(F)F)c3)c2cc1O[C@H]1CCOC1 [BI3406, N-[(1R)-1-[3-amino-5-(trifluoromethyl)phenyl]ethyl]-7-methoxy-2-methyl-6-[(3S)-oxolan-3-yl]oxyquinazolin-4-amine]
efficacy [1]: 40%
efficacy in the in vitro model of pain (NGF stimulated PC12 assay), in words [1]: efficacy comparable with the pain drug candidate Tanezumab
IC50 ([1]; Rattus norvegicus, PC-12): 10 to 20 nM
efficacy in a pain model, in words ([2]; 10 mg/kg): efficacy
efficacy / analgesic effect in a pain model, in words ([2]; 25 mg/kg): little to no efficacy; also recorded: no limited analgesic effect on its own
weight-bearing, ratio ipsilateral/contralateral (mean) ([2]; 25 mg/kg): 65.06% and 68.18% and 69.64% and 67.26%
weight-bearing, ratio ipsilateral/contralateral (mean) ([2]; 50 mg/kg): 74.11% and 71.76% and 77.59% and 78.09%
weight-bearing, ratio ipsilateral/contralateral (mean) ([2]; 100 mg/kg): 84.56% and 66.96% and 81.75% and 91.15%
